Measured values from patent publication US20240016718A1 (priority 2020, published 2024).

Tests used:
[1] = tested on: sebaceous lipids in sebum (fatty acid, squalene, cholesterol, wax esters, cholesteryl ester); experiment: Lipidomics analysis of sebum (lipid extraction, GC/FID peak areas); type: in vivo, Rhino mice (RHJ/LeJ); conditions: Rhino mice sebum, day 15; Dysport i.d.; Adapalene gel 0.1% topical daily
[2] = tested on: Substance P; experiment: Substance P ELISA on back skin tissue extracts; type: in vivo, Rhino mice (RHJ/LeJ); conditions: Rhino mice, day 15; Dysport 0.1-1 U i.d.; Adapalene gel 0.1% topical daily, versus control
[3] = tested on: IL-1 alpha; experiment: IL-1 alpha ELISA on back skin tissue extracts; type: in vivo, Rhino mice (RHJ/LeJ); conditions: Rhino mice back skin, day 15; Dysport 0.1-1 U i.d.; Adapalene gel 0.1% topical daily
[4] = tested on: sebaceous glands; experiment: Sebaceous glands surface (HES histology); type: in vivo, Rhino mice (RHJ/LeJ); conditions: day 15; Dysport 0.1-1 U i.d.; Adapalene gel 0.1% topical daily
[5] = tested on: utriculi; experiment: Utriculi surface (HES histology); type: in vivo, Rhino mice (RHJ/LeJ); conditions: day 15; Dysport 0.1-1 U i.d.; Adapalene gel 0.1% topical daily
[6] = tested on: keratinocytes; experiment: Keratinocyte proliferation (Ki67 positive cells in epidermis); type: in vivo, Rhino mice (RHJ/LeJ); conditions: day 15; Dysport 0.1-1 U i.d.; Adapalene gel 0.1% topical daily
[7] = tested on: fibroblasts; experiment: Fibroblast proliferation (Ki67 positive cells in dermis); type: in vivo, Rhino mice (RHJ/LeJ); conditions: day 15; Dysport 0.1-1 U i.d.; Adapalene gel 0.1% topical daily
[8] = tested on: epidermis (back skin); experiment: Epidermis thickness (HES histology); conditions: day 15; Dysport 0.1-1 U i.d.; Adapalene gel 0.1% topical daily
[9] = tested on: dermis (inflammatory infiltrate); experiment: Dermis inflammation (number of nuclei/1000 μm^2 on HES slices); conditions: day 15; Dysport i.d. (closely followed the dose); Adapalene gel 0.1% topical daily

`COc1ccc(-c2ccc3cc(C(=O)O)ccc3c2)cc1C12CC3CC(CC(C3)C1)C2` [Adapalene] was tested, and the “Effect on lipid content / lipid species of sebum” value [1] was “did not change significantly”, the “Effect on Substance P level in back skin” value [2] was “similar” and the “Effect on IL-1 alpha levels” value [3] was “significantly reduced”. For the same compound, the “Effect on sebaceous glands surface” value [4] was “significantly increased”, the “Effect on utricles surface” value [5] was “significantly decreased” and the “Effect on keratinocyte proliferation” value [6] was “significantly increased”. For the same compound, the “Effect on fibroblast proliferation” value [7] was “significantly increased”, the “Effect on thickness of epidermis” value [8] was “significantly increased” and the “Effect on dermis inflammation” value [9] was “significantly increased”.
